# Test results: article PMC12363935, “Unc-51 Like Kinase 3 (ULK3) is essential for autophagy and cell survival in multiple myeloma” (Research Square, 2025)
# Tested on: primary CD138+ MM cells
# Assay: EMMA ex vivo platform, live cell imaging, 96 hours, collagen matrix with bone marrow stroma and patient plasma
# Assay type: cell-based
# Parameters: scale not given here
# Details: Pt885, NDMM
# Excerpt: For clinical robustness, we tested the activity of MA9 in MM patient samples using our ex vivo mathematical myeloma advisor (EMMA) platform (Supplementary Table 1). […]
# For these assays, we used a novel EMMA platform developed at Moffitt. Further details are included in the supplemental Materials. […]
# 400 Ex vivo drug sensitivity characterization
# 401 An ex vivo assay was used to quantify the chemosensitivity of primary MM cells. Fresh BM
# 402 aspirate cells were enriched for CD138+ expression using Miltenyi (Bergisch Gladbach, Germany)
# MM cells (CD138+) were seeded in Corning
# 404 Cell BIND 384 well plates (Corning, NY) with collagen I and previously established human-
# 407 inactivated), penicillin/streptomycin, and patient-derived plasma (10%, freshly obtained from
# 409 added using a robotic plate handler so that every drug/combination was tested at 5 (fixed
# 410 concentration ratio, for combinations) concentrations (1:3 serial dilution) in two replicates.
# 411 Negative controls (supplemented growth media with and without the vehicle control dimethyl
# 412 sulfoxide [DMSO]) were included, as well as positive controls for each drug (cell line MM1.S at
# 413 highest drug concentration). Plates were placed in a motorized stage microscope (EVOS Auto FL,
# 414 Life Technologies, Carlsbad, CA) equipped with an incubator and maintained at 5% CO2 and 37
# 415 °C. […]
# Digital image analysis computes the percent […]
compound,measurement,value
"CC(C)C[C@H](NC(=O)[C@H](Cc1ccccc1)NC(=O)c1cnccn1)B(O)O [BTZ, bortezomib]",AUC,54.295
